The values that follow are results of earlier work, collected in patent US9133183B2 (Deciphera Pharmaceuticals, LLC, priority 2013, dated 2015).

Protein sequences, listed by entry. Tags and fused reporters are not part of them. Residues count along the entry.
UniProt P35968, 20-1356 limits assumed: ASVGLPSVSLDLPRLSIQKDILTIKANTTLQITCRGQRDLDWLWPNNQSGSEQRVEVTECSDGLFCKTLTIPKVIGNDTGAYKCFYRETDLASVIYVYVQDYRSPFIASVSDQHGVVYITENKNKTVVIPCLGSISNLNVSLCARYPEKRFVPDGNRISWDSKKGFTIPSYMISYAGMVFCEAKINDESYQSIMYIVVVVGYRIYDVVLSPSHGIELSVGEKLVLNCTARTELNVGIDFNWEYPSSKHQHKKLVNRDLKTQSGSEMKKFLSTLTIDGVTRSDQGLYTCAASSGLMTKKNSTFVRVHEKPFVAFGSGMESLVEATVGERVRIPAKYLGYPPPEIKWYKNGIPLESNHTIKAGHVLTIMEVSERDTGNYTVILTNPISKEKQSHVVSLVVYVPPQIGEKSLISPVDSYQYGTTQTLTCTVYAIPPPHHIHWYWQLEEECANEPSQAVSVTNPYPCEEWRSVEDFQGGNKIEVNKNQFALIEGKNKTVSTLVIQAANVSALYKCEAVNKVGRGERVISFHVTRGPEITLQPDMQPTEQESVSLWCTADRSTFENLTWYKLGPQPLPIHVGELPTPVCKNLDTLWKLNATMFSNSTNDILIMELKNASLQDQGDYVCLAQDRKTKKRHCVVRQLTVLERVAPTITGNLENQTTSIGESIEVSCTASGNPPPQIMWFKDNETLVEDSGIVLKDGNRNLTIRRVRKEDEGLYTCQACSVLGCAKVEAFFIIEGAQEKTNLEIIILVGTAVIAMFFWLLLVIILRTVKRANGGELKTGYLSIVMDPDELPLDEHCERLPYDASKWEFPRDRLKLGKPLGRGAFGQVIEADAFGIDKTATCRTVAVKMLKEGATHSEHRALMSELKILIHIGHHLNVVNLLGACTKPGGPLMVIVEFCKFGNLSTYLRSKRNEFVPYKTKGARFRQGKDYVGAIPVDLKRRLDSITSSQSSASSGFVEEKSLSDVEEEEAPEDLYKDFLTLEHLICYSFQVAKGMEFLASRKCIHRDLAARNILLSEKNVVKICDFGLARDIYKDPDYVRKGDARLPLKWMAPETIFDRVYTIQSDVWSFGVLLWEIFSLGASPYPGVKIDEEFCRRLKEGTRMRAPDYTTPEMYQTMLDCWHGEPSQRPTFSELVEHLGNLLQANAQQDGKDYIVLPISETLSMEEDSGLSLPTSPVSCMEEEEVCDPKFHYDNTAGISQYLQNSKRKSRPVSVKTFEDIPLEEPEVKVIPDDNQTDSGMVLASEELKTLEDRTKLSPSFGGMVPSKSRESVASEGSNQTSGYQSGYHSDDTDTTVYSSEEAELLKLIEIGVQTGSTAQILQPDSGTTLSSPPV
UniProt P08581, 25-1390 limits assumed: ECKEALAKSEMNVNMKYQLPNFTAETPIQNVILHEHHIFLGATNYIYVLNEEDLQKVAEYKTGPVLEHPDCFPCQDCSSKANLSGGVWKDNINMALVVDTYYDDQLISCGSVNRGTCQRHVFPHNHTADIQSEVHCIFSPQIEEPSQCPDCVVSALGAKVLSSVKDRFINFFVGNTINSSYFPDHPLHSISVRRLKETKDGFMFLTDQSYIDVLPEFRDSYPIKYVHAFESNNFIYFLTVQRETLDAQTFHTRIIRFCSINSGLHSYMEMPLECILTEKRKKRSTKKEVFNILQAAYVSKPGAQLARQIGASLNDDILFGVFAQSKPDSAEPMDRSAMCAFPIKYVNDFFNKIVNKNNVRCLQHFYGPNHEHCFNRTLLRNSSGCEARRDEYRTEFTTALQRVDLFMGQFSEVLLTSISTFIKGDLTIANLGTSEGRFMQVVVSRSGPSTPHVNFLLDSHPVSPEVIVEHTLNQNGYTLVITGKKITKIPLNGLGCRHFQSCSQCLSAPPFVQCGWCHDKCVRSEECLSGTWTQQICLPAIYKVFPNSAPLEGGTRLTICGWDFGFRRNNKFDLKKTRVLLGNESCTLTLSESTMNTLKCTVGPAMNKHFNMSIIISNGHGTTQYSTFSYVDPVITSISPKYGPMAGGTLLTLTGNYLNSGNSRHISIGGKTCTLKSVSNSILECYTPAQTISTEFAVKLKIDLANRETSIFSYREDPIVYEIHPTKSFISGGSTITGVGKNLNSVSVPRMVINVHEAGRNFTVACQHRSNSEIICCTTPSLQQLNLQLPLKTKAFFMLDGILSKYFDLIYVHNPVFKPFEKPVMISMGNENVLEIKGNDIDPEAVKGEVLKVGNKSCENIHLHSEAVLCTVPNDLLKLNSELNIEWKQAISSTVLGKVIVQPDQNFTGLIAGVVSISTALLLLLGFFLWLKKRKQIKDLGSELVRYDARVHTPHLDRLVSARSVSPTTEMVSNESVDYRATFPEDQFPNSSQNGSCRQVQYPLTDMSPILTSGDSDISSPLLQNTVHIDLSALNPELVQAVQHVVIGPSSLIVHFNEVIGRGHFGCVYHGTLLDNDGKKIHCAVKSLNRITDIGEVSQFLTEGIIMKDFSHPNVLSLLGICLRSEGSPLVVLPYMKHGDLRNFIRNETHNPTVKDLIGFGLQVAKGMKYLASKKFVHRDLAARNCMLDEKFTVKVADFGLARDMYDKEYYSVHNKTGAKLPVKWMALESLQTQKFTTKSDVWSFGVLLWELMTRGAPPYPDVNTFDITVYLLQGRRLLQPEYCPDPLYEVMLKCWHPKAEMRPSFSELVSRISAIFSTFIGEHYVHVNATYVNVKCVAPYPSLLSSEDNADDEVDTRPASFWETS

Structures are written as SMILES.

For one data set, the target named is KDR kinase (Homo sapiens (Human), UniProt P35968). The settings on record: read-out: KDR IC50; published data from US2008/0255155; cited from earlier work.
The target in another data set is cMET kinase (Homo sapiens (Human), UniProt P08581). To be noted: read-out: cMET IC50; published data from US2008/0255155; cited from earlier work.

As to `O=C(Nc1cc(Oc2ccc(NC(=O)N3CCN(c4ccccc4)C3=O)cc2F)ccn1)N1CCCC1`, the IC50 at KDR kinase is < 500 nM. Consider `CNC(=O)c1cc(Oc2ccc(NC(=O)N3CCN(c4ccccc4)C3=O)cc2F)ccn1`, for which the IC50 at cMET kinase and at KDR kinase was < 500 nM each time.

In the case of `CNC(=O)c1cc(Oc2ccc(NC(=O)N3CCN(c4ccc(F)cc4)C3=O)cc2F)ccn1`, the IC50 at cMET kinase was < 1000 nM; at KDR kinase, > 1000 nM.
